Article PMC6829536 (International Journal of Molecular Sciences, 2019)

What was measured:
Test in all cases: Isothermal titration calorimetry (ITC) of ligand binding at the FMNAT site
L98W CaFADS = target: T1, L98W CaFADS (Corynebacterium ammoniagenes, UniProt Q59263, L98W)
T1 construct: made in house; host or cells: E. coli BL21(DE3)

P58W CaFADS = target: T2, P58W CaFADS (Corynebacterium ammoniagenes, UniProt Q59263, P58W)
T2 construct: made in house; host or cells: E. coli BL21(DE3)

P56A/P58A CaFADS = target: T3, P56A/P58A CaFADS (Corynebacterium ammoniagenes, UniProt Q59263, P56A/P58A)
T3 construct: made in house; host or cells: E. coli BL21(DE3)

L98K CaFADS = target: T4, L98K CaFADS (Corynebacterium ammoniagenes, UniProt Q59263, L98K)
T4 construct: made in house; host or cells: E. coli BL21(DE3)

WT CaFADS = target: T5, WT CaFADS (Corynebacterium ammoniagenes, UniProt Q59263); settings: 20 mM PIPES, pH 7.0, no MgCl2
T5 construct: made in house; host or cells: Escherichia coli

P56W CaFADS = target: T6, P56W CaFADS (Corynebacterium ammoniagenes, UniProt Q59263, P56W)
T6 construct: made in house; host or cells: E. coli BL21(DE3)

## Nc1ncnc2c1ncn2[C@@H]1O[C@H](COP(=O)(O)OP(=O)(O)OP(=O)(O)O)[C@@H](O)[C@H]1O [ATP, Adenosine 5′-triphosphate]
L98W CaFADS
  Kd: 47 ± 7 µM
L98W CaFADS; L98W CaFADS, ITC, 20 mM PIPES, pH 7.0, no MgCl2
  ΔG: -5.9 ± 0.1 kcal/mol
P58W CaFADS
  Kd: 16 ± 1 µM
P56A/P58A CaFADS
  Kd: 21 ± 3 µM
L98K CaFADS
  Kd: 82 ± 21 µM
WT CaFADS
  ΔG: -5.9 ± 0.1 kcal/mol
WT CaFADS; 25 °C
  Kd: 48 ± 7 µM
P56W CaFADS
  Kd: 44 ± 5 µM
P56W CaFADS; P56W CaFADS, ITC, 20 mM PIPES, pH 7.0, no MgCl2
  ΔG: -5.9 ± 0.1 kcal/mol
